{"source": "patent US6340461B1", "about": "(priority 1996, dated 2002)", "key": {"[1]": {"system": "MCA 205 pulmonary metastases", "parameters": "species or system C57BL/6 mice", "conditions": "mouse"}, "[2]": {"system": "MCA 207 pulmonary metastases", "parameters": "species or system mice", "conditions": "mouse, in vivo"}}, "note": "Several values for one entry are separate records, joined by “and”; a condition that tells them apart may be missing. Equal values may be shown once."}
{"substance": "IL-2: interleukin 2, given alone in vivo as control", "values": [{"measurement": "tumor killing in vivo", "setting": "[1]", "value": "ineffective"}, {"measurement": "Mean No. Metastases (SE)", "setting": "[1]; in vivo", "value": "250 and 248"}, {"measurement": "Mean number of Metastases (SE)", "setting": "[1]; in vivo", "value": 250}, {"measurement": "Mean number of Metastases (SE)", "setting": "[2]", "value": 200}]}
